As a reminder, the IC50 is the point on the concentration scale where inhibition reaches its midpoint.

Chains of the proteins cited; added tags and fusions are not shown.
UniProt P40763, whole entry: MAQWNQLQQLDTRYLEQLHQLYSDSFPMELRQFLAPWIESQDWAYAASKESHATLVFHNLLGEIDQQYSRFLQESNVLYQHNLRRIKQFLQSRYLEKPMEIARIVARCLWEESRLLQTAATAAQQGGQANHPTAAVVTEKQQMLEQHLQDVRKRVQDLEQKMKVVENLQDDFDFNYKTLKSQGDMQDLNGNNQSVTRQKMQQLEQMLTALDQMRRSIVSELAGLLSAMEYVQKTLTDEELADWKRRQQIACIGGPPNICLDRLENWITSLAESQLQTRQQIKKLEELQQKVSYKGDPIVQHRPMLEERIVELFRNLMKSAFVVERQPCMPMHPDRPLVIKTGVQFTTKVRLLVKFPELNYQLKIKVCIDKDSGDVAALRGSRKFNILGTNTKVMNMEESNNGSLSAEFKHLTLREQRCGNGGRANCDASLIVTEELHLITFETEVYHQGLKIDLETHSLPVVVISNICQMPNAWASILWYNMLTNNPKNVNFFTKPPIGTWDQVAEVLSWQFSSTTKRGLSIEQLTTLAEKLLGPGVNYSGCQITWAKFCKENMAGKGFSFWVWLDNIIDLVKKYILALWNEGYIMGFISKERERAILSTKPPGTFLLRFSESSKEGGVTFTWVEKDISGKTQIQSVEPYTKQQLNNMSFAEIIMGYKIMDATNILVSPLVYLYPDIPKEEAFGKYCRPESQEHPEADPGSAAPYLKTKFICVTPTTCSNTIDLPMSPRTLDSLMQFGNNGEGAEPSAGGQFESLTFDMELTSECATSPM

This assay concerns the target STAT3 (Homo sapiens, UniProt P40763). As to the kind of experiment: STAT3 tyrosine phosphorylation inhibition. The assay is classed as biochemical. The following applies: STAT3 phosphorylation IC50 (μM) (mean ± SD), ELISA, eight dilutions 100-0.03 μM. Background: In an ELISA, binding on a coated surface is turned into a signal by an enzyme label.

Regarding `C[C@H]1COC2=C1C(=O)C(=O)c1c2ccc2c1CCCC2(C)C` [Cryptotanshinone, reference compound], the midpoint of inhibition, the IC50, lay at 3.52 ± 0.75 µM.
